The experiment deals with 5-hydroxytryptamine receptor 4 (Cavia porcellus) (UniProt O70528). As to the kind of experiment: Displacement of [3H]GR113808 from 5HT4R in guinea pig striatal membranes at 10 nM. In kind it is cell membranes. The following applies: Striatum, Membrane. A digest of the protocol:
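Native 5-HT4R in male guinea pig striatal membranes (HEPES 50 mM pH 7.4); 600 µg membrane incubated in duplicate with [3H]GR 113808 at 0.1 nM final, 37 °C, 30 min; filtration on PEI-soaked GF/B filters, cold buffer washes.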
In general terms: Displacement assays read how much labelled ligand stays bound in the presence of the test substance.

By UniProt entry, the sequences of proteins in these tests, tags left out. Where a name states a change or a piece, a line headed by the entry shows the natural chain unless it says otherwise.
UniProt O70528: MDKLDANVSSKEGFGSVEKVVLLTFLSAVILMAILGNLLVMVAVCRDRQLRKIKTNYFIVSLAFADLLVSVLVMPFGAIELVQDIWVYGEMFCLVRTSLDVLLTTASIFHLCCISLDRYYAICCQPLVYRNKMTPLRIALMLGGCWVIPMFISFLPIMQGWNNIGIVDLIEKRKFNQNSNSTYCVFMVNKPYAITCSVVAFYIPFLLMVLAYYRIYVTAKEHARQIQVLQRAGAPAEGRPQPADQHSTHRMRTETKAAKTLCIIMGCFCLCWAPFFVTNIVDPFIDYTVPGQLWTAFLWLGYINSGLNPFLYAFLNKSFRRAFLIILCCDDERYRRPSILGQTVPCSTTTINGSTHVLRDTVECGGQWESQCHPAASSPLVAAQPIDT

Each structure is given as a SMILES string.

As a reminder, the inhibition is the share of the control response that was lost under treatment.

`CCCN1CCC(COc2nc3ccccc3c3ccccc23)CC1` registered an inhibition of 11%.

With `CCCN1CCC(COc2nc3ccc(OC)cc3c3ccccc23)CC1`, the inhibition amounted to 9%.

The values are drawn from ChEMBL document CHEMBL2176996, “Synthesis and structure-affinity relationships of selective high-affinity 5-HT(4) receptor antagonists: application to the design of new potential single photon emission computed tomography tracers” (J Med Chem, 2012).
